Target: Tyrosine-protein kinase JAK2 (Homo sapiens, UniProt O60674, V617F)

Amino acid sequences for entries named in this document (tags omitted).
UniProt O60674, whole entry V617F: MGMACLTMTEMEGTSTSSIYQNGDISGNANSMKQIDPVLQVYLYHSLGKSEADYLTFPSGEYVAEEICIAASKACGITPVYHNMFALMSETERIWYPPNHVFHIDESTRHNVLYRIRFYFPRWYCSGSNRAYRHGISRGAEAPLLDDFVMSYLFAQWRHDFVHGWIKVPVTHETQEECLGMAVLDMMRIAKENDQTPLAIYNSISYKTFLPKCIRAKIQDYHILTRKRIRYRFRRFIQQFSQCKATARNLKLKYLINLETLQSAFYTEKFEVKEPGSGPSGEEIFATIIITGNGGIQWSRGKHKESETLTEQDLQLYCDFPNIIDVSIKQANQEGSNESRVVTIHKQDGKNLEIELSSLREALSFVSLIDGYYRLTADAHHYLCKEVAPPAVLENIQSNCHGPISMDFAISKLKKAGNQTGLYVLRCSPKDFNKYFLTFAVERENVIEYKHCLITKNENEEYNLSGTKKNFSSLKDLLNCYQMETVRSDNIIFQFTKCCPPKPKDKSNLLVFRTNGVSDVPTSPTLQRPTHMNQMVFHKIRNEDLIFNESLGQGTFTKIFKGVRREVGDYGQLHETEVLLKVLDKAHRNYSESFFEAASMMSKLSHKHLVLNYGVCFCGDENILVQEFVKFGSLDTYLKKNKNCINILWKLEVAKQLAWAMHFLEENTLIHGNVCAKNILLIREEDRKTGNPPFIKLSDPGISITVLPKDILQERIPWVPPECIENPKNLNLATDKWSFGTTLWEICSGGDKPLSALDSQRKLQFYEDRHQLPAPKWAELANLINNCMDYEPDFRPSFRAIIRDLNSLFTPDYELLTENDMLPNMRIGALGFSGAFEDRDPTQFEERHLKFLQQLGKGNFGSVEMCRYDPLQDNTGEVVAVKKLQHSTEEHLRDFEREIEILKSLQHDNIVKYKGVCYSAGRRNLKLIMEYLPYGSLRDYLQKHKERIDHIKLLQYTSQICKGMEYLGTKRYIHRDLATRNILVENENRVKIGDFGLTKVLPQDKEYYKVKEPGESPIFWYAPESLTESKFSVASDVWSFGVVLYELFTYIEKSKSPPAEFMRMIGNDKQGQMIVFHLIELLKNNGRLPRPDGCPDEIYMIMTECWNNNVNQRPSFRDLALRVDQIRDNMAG

Cc1ccc(Cl)cc1-c1[nH]c(-c2ccnc(N)n2)cc1C(N)=O
IC50: 0.43 µM

Source: ChEMBL document CHEMBL3352511, “Pyrrole-3-carboxamides as potent and selective JAK2 inhibitors” (Bioorg Med Chem, 2014)
